Laboratory results as given in article PMC3616494 (Journal of medicinal chemistry, 2008).

Chains of the proteins cited; added tags and fusions are not shown.
UniProt P28647, whole entry: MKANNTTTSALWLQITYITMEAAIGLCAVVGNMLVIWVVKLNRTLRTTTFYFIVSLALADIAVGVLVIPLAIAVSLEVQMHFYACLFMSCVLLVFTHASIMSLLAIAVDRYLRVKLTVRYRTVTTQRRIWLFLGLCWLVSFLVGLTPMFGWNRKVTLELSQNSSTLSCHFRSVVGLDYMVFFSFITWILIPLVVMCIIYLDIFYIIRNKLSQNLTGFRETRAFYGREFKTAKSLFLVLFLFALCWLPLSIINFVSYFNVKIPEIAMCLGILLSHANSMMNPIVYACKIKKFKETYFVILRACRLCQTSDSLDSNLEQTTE

Target: rat A3 AR (Rattus norvegicus, UniProt P28647)
Test: Radioligand binding at rat A3 AR

Ki: 6.2 ± 1.8 nM
Compound: O[C@@H]1[C@H](O)CS[C@H]1n1cnc2c(NCc3cccc(Cl)c3)nc(Cl)nc21 [Compound 6c]
